# In patent publication US20220288223A1, “ACTIVATABLE SPECIFIC BINDING MEMBER COMPLEXES, AND METHODS OF MAKING AND USING SAME” (The Regents of the University of California, priority 2019, published 2022):
# Key:
# [1] = test system: head and neck cancer cell line (Cal-27); assay: Immunohistocytochemistry, HRP-dependent DAB staining (FIG. 4); assay type: cell-based; conditions: FIG. 4 panel B
# Text: Thrombin treatment activated the PA-cetuximab to allow binding to EGFR protein and cells (Cal-27) that express EGFR (FIG. 4).
# [2] = dose limiting skin toxicities; cited from earlier work
substance,measurement,setting,value
cetuximab [reference compound],Binding to Cal-27 cells (DAB staining on membranes),[1],binding
same,Severe skin rash,[2],approximately 90 % of patients
